Patent US12409171B2, “Pharmaceutically active pyrazolo-pyridone modulators of DCN1/2-mediated cullin neddylation” (UNIVERSITY OF KENTUCKY RESEARCH FOUNDATION, priority 2019, dated 2025)
Read-outs that look alike come from different tables or passages of the source.

Protein sequences, listed by entry. Tags and fused reporters are not part of them.
UniProt Q96GG9, whole entry: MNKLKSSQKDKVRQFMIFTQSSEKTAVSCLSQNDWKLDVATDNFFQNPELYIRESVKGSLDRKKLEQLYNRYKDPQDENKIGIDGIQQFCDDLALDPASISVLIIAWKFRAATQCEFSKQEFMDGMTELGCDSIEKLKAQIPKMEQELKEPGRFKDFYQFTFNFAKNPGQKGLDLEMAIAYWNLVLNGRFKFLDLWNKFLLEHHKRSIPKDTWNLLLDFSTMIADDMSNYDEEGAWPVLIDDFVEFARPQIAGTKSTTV

Target: DCN1 (Homo sapiens (Human), UniProt Q96GG9)
Assay: TR-FRET binding assay (biotin-DCN1 / Ac-UBE2M12-AlexaFluor488)
Conditions: diastereomer on branched alkyl group
[1] = read-out: IC50 (μM) (TR-FRET), TLC-down diastereomer, TLC-down
[2] = read-out: IC50 (μM) (TR-FRET), TLC-up diastereomer, TLC-up

SMILES | IC50 [1] [µM] | IC50 [2] [µM]
CCC(C)n1nc(C)c2c1N(CC)C(=O)[C@@H](NC(=O)c1cccc(C)c1)[C@H]2c1ccc(F)cc1 (single isomer, unassigned) | 0.5 | 1.2
Cc1cccc(C(=O)N[C@@H]2C(=O)Nc3c(c(C)nn3C(C)C3CC3)[C@@H]2c2ccc(F)cc2)c1 (single isomer, unassigned) | 0.3 | 0.7
Cc1cccc(C(=O)N[C@@H]2C(=O)Nc3c(c(C)nn3C(C)C(F)(F)F)[C@@H]2c2ccc(F)cc2)c1 (single isomer, unassigned) | 0.9 | 2.3
CCC(C)n1nc(C)c2c1NC(=O)[C@@H](NC(=O)c1cccc(C)c1)[C@H]2c1ccc(F)cc1 (single isomer, unassigned) | 0.6 | 0.7
